Source: ChEMBL document CHEMBL4818995, “Dual nicotinamide phosphoribosyltransferase and epidermal growth factor receptor inhibitors for the treatment of cancer” (Eur J Med Chem, 2021)
Calls of active or inactive are those of the source. The calls are words filed in the database; no cut-off is given here.

Tested on: NCI-H1975
Assay: Antitumor activity against human NCI-H1975 cells xenografted in BALB/c nude mouse assessed as reduction in tumor growth at 60 mg/kg, ig administered once daily for 3 weeks
Type: functional, organism-based
Settings: dose 60.0 mg/kg/day

## COc1cc2ncnc(Nc3ccc(F)c(Cl)c3)c2cc1OCCCN1CCOCC1
  Activity: inactive
